The numbers were not newly measured in US8022029B2, “Fabric softening compositions comprising polymeric materials” (priority 2007, dated 2011), which cites them from elsewhere.

In general, Log P refers to the decadic logarithm of the partition coefficient of the neutral form, usually between octanol and water.

For the data set the following is noted: Table 4; cited from earlier work.

`C=CCc1ccc(O)c(OC)c1` [Eugenol, eugenol]: the “Log P” value is recorded as 2.30.
